Results from ChEMBL document CHEMBL5505991, “Novel sulfonamide-indolinone hybrids targeting mitochondrial respiration of breast cancer cells” (Eur J Med Chem, 2024).

Sequences of proteins named here, by UniProt entry; tags and fusion partners are left off.
UniProt Q96GD4, whole entry: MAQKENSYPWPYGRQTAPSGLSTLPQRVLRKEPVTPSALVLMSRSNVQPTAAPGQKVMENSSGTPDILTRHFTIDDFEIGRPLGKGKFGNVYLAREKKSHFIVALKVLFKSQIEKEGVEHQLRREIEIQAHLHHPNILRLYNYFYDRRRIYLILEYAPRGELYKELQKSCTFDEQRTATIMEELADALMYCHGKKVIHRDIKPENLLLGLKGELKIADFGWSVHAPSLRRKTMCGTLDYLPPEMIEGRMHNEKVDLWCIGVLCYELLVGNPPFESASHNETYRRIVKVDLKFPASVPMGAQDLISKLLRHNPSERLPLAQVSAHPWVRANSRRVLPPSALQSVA

Target: Aurora kinase B (Homo sapiens, UniProt Q96GD4)
Experiment: Inhibition of Aurora B (unknown origin) at 100 nM by Z-LYTE assay relative to control

inhibition: 46%
SMILES: O=C1Nc2cc(-c3ccc(NS(=O)(=O)c4ccc(F)c(Cl)c4)cc3)ccc2/C1=C/c1ccc[nH]1
